Values of other authors as cited in patent publication US20020004042A1, “Gene therapy for pulmonary edema using adenovirus vectors encoding a beta2adrenergic receptor gene” (priority 2000, published 2002).

Test system: isolated rat lungs
Settings: cited from earlier work

## CC(C)NCC(O)c1ccc(O)c(O)c1 (stereo not shown) [isoproterenol]
  increase in lung liquid clearance: > 100%
